The record followed here is patent US8883824B2, “3-(4-aminophenyl)-2-furancarboxylic acid derivative and pharmaceutically acceptable salt thereof” (Sumitomo Dainippon Pharma Co., Ltd., priority 2009, dated 2014).

This experiment relates to ob/ob mice. In words: Combination use with DPPIV inhibitor sitagliptin, postprandial hyperglycemia in ob/ob mice. It is filed as in vivo. The note with it: single use; single oral dose (Example 69 0.1 mg/kg; sitagliptin 5 mg/lm) one hour before liquid food. The protocol:
B6.V-Lepob/J (ob/ob) mice and control B6.V-Lepob/J (?/+) mice (male, 6 to 7 weeks old, n=8, Charles River Japan) were used. […] One hour later, liquid food (ensure H, Abbott Japan, Co., Ltd., 1.5 kcal/mL) was orally administered. The blood sugar levels immediately before, and 15, 30, 60, and 90 minutes after administration of the liquid food were measured.

With `N[C@@H](CC(=O)N1CCn2c(nnc2C(F)(F)F)C1)Cc1cc(F)c(F)cc1F` [sitagliptin, reference compound], the “area under the blood concentration-time curve (blood sugar) after liquid food” value is “normalized” and the “blood sugar increase 15 minutes after the administration of liquid food” value is listed as “could not normalize”.
